Test system: MDA-MB-436 cell line
Assay: Inhibition of cell proliferation by ADC products in vitro
Format: cell-based
Conditions: 6 days, read-out: IC50, nM MDA-MB-436 cell line (FRα−)
Procedure: HCC1954 cells (HER2 positive, purchased from the cell bank of ATCC, Cat. No. CRL-2338) were normally cultured in a RPMI-1640 medium (Gibco, Cat. No. A1049101) with 1000 fetal bovine serum (FBS) (Gibco, Cat. No. A5669701) in a cell culture incubator at 37° C. and 500 CO2; and MDA-MB-468 cells (HER2 negative, purchased from Cell Resource Center, Shanghai Academy of Biological Sciences, Chinese Academy of Sciences) were both normally cultured in a DMEM medium with 10% fetal bovine serum (FBS) in a cell culture incubator at 37° C. and 5% CO2. The cells were added to a 96-well plate at 1.0×10^3 cells/well and 100 μL/well and incubated in a cell culture incubator at 37° C. and 500 CO2. […]
The OD450 optical density values were read on an EnVision™ multi-function microplate reader (PerkinElmer), and the inhibition rates (%) of the test antibody-conjugated drugs were calculated. […]
After 6 days of treatment with the antibody-conjugated drugs to be tested, 50 μL/well of CellTiter-Glo® reagent (Promega, Cat. No. G9243) was added to the wells, mixed thoroughly with shaking and incubated for 10 minutes. Chemiluminescence values were read on an EnVision™ multi-function microplate reader (PerkinElmer). […]

B1: ADC-33 (conjugate)
heavy: QVQLVQSGAEVVKPGASVKISCKASGYTFTGYFMNWVKQSPGQSLEWIGRIHPYDGDTFYNQKFQGKATLTVDKSSNTAHMELLSLTSEDFAVYYCTRYDGSRAMDYWGQGTTVTVSSASTKGPSVFPLAPSSKSTSGGTAALGCLVKDYFPEPVTVSWNSGALTSGVHTFPAVLQSSGLYSLSSVVTVPSSSLGTQTYICNVNHKPSNTKVDKKV[human IgG1 Fc not spelt out]
light: DIVLTQSPLSLAVSLGQPAIISCKASQSVSFAGTSLMHWYHQKPGQQPRLLIYRASNLEAGVPDRFSGSGSKTDFTLTISPVEAEDAATYYCQQSREYPYTFGGGTKLEIKRTVAAPSVFIFPPSDEQLKSGTASVVCLLNNFYPREAKVQWKVDNALQSGNSQESVTEQDSKDSTYSLSSTLTLSKADYEKHKVYACEVTHQGLSSPVTKSFNRGEC
In the case of B1, the IC50 is reported as 16.4 nM.
